Only some compounds are listed: those with a hit (about 1.5% of all), similar ones and a draw of the others.
Yeast UUG start: modulators of start codon recognition fidelity in yeast; S. cerevisiae UUG-firefly luciferase reporter, luminescence/redox ratio; AID 602363; 350,000 tested, 0.13% active; activity score, % at 18.7 µM;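 active = replicate mean at a twofold rise or more, about +100% in these data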;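 also: firefly luciferase made from a UUG start codon reports start codon fidelity; reporter light over untreated wells divided by growth signal over untreated wells; some hits fall short of that in this replicate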
FN deposition inh: fibronectin deposition inhibition. hit rate 0.086% among 350,000. AH1F fibroblasts, Alexa488-fibronectin deposition fluorescence, overnight. inhibition, % at 12.6 µM;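 active means mean inhibition across replicates of 30% or more, regardless of how many single replicates reach that level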;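 further: positive control wells lacked labelled fibronectin entirely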
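Material – AH1F fibroblast monolayer, labelled fibronectin deposition · Reagent – labelled fibronectin 24 nM · Timing – 1 h adhesion, overnight exposure · Measured by – fluorescence at 485 nm excitation, 525 nm emission · Read-out – inhibition of fibronectin deposition signal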
Cneo AK release: Cryptococcus neoformans lysis via adenylate kinase release. C. neoformans lysis, adenylate kinase release luminescence, 4 h; normalised: neutral wells 0, clomiphene wells 100. lysis activity, % at 15 µM. hit rate 0.2% among 360,000. AID 651654;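 active means mean lysis activity across replicates of at least 80%, whatever share of replicates individually reach that level; inactive means mean lysis activity below 80%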
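Assay system: log-phase C. neoformans yeast / Quantity: yeast cell density of 5 × 10^6 cells/mL / Medium: fresh YPD growth medium / Compound: single dose / Timing: static 4 h at 37 °C with compound, 1 h detection / Measured by: adenylate kinase release luminescence / Read-out: lysis from increased AK signal / Benchmarks: Clomiphene as positive lysis control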
miR-122 sensor: miR-122 inhibition in Huh7 cells; Huh7 miR-122 Renilla luciferase sensor, 48 h; neutral wells = 0, positive control = 100; activation (reporter increase), % at 12.5 µM; hit rate 0.3% among 340,000; AID 602342;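 active means mean replicate activation score at least 90 and every replicate individually at or above 90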;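 further: higher luciferase means less miR-122 activity so hits act as miR-122 inhibitors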
HIV Env fusion: HIV envelope-mediated fusion inhibition; inhibition, % at 12.3 µM; HeLa-JRFL Env/CEM21 cell fusion, luciferase; hit rate 1.1% among 360,000;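 active means mean replicate inhibition score of at least 50 and every replicate individually at or above 50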;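 further: 0% = plate neutral controls and 100% = maraviroc near 300 nM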
PGC1a acetyl inh: PGC1a acetylation modulation, inhibitor mode; hit rate 0.17% among 350,000; AID 651687; U2OS PGC1a acetylation, AlphaScreen anti-acetyl-lysine; with virally co-expressed GCN5 acetyltransferase; inhibition, % at 15.6 µM;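 active means every replicate shows inhibition of at least 40%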;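 further: 0% = neutral control wells and 100% = positive control wells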
* marks the source's active call; other numbers are inactive results; . = not tested or not shown; ! = a repeat was not active; [ ] = dose if it differs, or a comment.

Letter code: A = Yeast UUG start; B = FN deposition inh; C = Cneo AK release; D = miR-122 sensor; E = HIV Env fusion; F = PGC1a acetyl inh
1. COc1ccc(C2C(C#N)=C(C)NC3=C2C(=O)c2ccccc23)cc1 (stereo not given)
  A: -15.7; B: .; C: 2.8; D: -3.8; E: 9.1; F: 9.9
2. CCOc1ccc2nc(NC(=O)CN3CCC(n4nnc5cc(C(F)(F)F)ccc54)CC3)sc2c1
  A: -20.8; B: 9.1; C: -3.2; D: 0.1; E: 50.2*; F: 8.9
3. O=C(CSc1ccc2ccccc2c1)Nn1cnnc1
  A: -4.5; B: .; C: -1.5; D: -3.5; E: .; F: -5.6
4. CSc1nsc(NC(=O)CCNC(=O)c2ccc([N+](=O)[O-])cc2)n1
  A: -10.1; B: -5.5; C: -0.2; D: -14.3; E: -8.3; F: -6.9
5. N#CC12C(N)=NC3(OCCO3)C1(C#N)C1=C(CCC1)NC2c1ccccc1 (stereo not given)
  A: .; B: .; C: .; D: -5.3; E: .; F: -9.0
6. CCC(=O)Nc1ccc2c(c1)OC[C@@H](C)N(C(=O)CC)C[C@H](C)[C@H](OC)CN(C)C2=O
  A: .; B: -12.9; C: .; D: 8.2[16.7 µM]; E: .; F: 10.8
7. COc1ccc(-c2c(O)c(C#N)c(-c3ccccc3)n(-c3ccc(OC)cc3)c2=O)cc1
  A: -4.7; B: -17.2; C: 5.5; D: 97.2*; E: -37.5; F: .
8. CC(=O)Nc1c(C#N)c(-c2ccccc2)c(C#N)c(=O)n1-c1ccc(C)cc1
  A: -2.2; B: .; C: -1.6; D: -2.7; E: -20.2; F: -4.5
9. COc1cccc(C2c3[nH]c4ccccc4c3C[C@H]3C(=O)N(C)CC(=O)N23)c1 (stereo not given in full)
  A: 27.8; B: -1.4; C: 1.1; D: 10.4; E: 17.6; F: 5.9
10. O=C(Nc1ccc(C(F)(F)F)cc1)N1C[C@@H]2N[C@H](C1)C2c1ccc(/C=C/c2ccccc2)cc1 (stereo not given in full)
  A: .; B: 3.7; C: .; D: .; E: .; F: 73.5*!
11. CCCCC1(Cc2ccc(OC)c([N+](=O)[O-])c2)C(=O)N(c2ccccc2)N(c2ccccc2)C1=O
  A: -12.1; B: 1.4; C: 1.7; D: -6.2; E: 118.4*; F: -2.8
12. S=C(NCC1CCCO1)Nc1ccc(Cl)cc1Cl (stereo not given)
  A: -19.5; B: 30.1*; C: 24.4; D: 26.8; E: 9.6; F: 0.3
13. S=C(NCC1CCCO1)Nc1ccc(Cl)cc1 (stereo not given)
  A: .; B: 2.1; C: .; D: .; E: 17.2; F: .
14. COc1ccc(N2CCN(C(c3cc4cc(C)ccc4[nH]c3=O)c3nnnn3Cc3ccccc3)CC2)cc1 (stereo not given)
  A: -5.0; B: .; C: 11.9; D: 2.6; E: -208.3; F: -0.6
15. COc1ccc2[nH]c(=O)c(CN(Cc3ccco3)C(c3nnnn3Cc3ccccc3)C(C)C)cc2c1 (stereo not given)
  A: -10.7; B: 4.2; C: .; D: 12.9; E: 54.5*; F: 5.0
16. CCN1CCN(C(c2cc3cccc(C)c3[nH]c2=O)c2nnnn2Cc2ccccc2)CC1 (stereo not given)
  A: -2.7; B: 6.6; C: -2.3; D: -13.8; E: -50.9; F: .
17. COc1ccc(Cn2nnnc2C(c2cc3cc(C)ccc3[nH]c2=O)N2CCOCC2)cc1 (stereo not given)
  A: -8.3; B: .; C: 0.7; D: -5.2; E: 66.9*; F: .
18. COc1ccc(Cn2nnnc2C(c2cc3cccc(C)c3[nH]c2=O)N2CCOCC2)cc1 (stereo not given)
  A: -16.5; B: -10.2; C: -0.7; D: -18.0; E: 86.0*; F: 0.7
19. Cc1ccc2nc(-c3cccc(Br)c3)c(CC3CCCCC3)n2c1
  A: -0.8; B: -4.2; C: 0.0; D: 9.0; E: -29.0; F: 3.2
20. CCC(=O)N1CCc2cc(Br)cc(S(=O)(=O)CCC(=O)NCCOC)c21
  A: -1.4; B: -13.0; C: -6.6; D: -2.5; E: -32.7; F: 10.4

Part of the list above, with each value named.
14) COc1ccc(N2CCN(C(c3cc4cc(C)ccc4[nH]c3=O)c3nnnn3Cc3ccccc3)CC2)cc1 (stereo not given)
  Yeast UUG start: -5.0
  FN deposition inh: .
  Cneo AK release: 11.9
  miR-122 sensor: 2.6
  HIV Env fusion: -208.3
  PGC1a acetyl inh: -0.6

15) COc1ccc2[nH]c(=O)c(CN(Cc3ccco3)C(c3nnnn3Cc3ccccc3)C(C)C)cc2c1 (stereo not given)
  Yeast UUG start: -10.7
  FN deposition inh: 4.2
  Cneo AK release: .
  miR-122 sensor: 12.9
  HIV Env fusion: 54.5*
  PGC1a acetyl inh: 5.0

Going on with the list.
Letter code: A = Yeast UUG start; B = FN deposition inh; C = Cneo AK release; D = miR-122 sensor; E = HIV Env fusion; F = PGC1a acetyl inh
21. S=C(NCCCN1CCOCC1)N1CCN(c2nc(-c3ccc(Cl)cc3)cs2)CC1
  A: -7.8; B: 3.3; C: -5.5; D: .; E: 75.5*; F: .
22. S=C(NCC1CCCO1)N1CCN(c2nc(-c3ccc(Cl)cc3)cs2)CC1 (stereo not given)
  A: -22.5; B: .; C: 2.0; D: -7.1; E: 57.4*; F: .
23. COCCCNC(=S)N1CCN(c2nc(-c3ccc(F)cc3)cs2)CC1
  A: -11.8; B: -2.3; C: -2.8; D: -4.2; E: 107.7*; F: -2.7
24. O=C(CCc1ccc(S(=O)(=O)N2CCOCC2)cc1)Nc1nc(COc2ccccc2)cs1
  A: .; B: -1.4; C: .; D: -4.2; E: 79.7*; F: 5.8
25. O=C(COc1ccccc1)Nc1nc(-c2ccc(S(=O)(=O)N3CCOCC3)cc2)cs1
  A: -4.3; B: .; C: -1.9; D: 15.9; E: .; F: 0.8
26. CC(C)(C)c1ccc(C(=O)Nc2ccccc2C(=O)NCCN2CCOCC2)cc1
  A: -15.1; B: -2.1; C: -7.0; D: -2.2; E: 4.9; F: 1.5
27. CC(C)(C)c1ccc(C(=O)NCCN2CCOCC2)cc1
  A: -9.5; B: 7.6; C: 5.7; D: 3.3; E: 3.1; F: 64.8*
